# Results reported in patent US6649355B2, “Lipoxygenase proteins and nucleic acids” (priority 1998, dated 2003).
# Molecular target: T1, 15-Lox-2 (second type of human 15S-lipoxygenase) (Homo sapiens, UniProt O15296, Q656R)
# T1 construct: Initially, five full length clones were expressed in HEK 293 cells; expressed in transfected cells; host or cells: HEK 293 cells, transient transfection (pCDNA3 or pCR3); sonicated cells incubated with substrate
# T1 sequence (O15296 1-676 Q656R): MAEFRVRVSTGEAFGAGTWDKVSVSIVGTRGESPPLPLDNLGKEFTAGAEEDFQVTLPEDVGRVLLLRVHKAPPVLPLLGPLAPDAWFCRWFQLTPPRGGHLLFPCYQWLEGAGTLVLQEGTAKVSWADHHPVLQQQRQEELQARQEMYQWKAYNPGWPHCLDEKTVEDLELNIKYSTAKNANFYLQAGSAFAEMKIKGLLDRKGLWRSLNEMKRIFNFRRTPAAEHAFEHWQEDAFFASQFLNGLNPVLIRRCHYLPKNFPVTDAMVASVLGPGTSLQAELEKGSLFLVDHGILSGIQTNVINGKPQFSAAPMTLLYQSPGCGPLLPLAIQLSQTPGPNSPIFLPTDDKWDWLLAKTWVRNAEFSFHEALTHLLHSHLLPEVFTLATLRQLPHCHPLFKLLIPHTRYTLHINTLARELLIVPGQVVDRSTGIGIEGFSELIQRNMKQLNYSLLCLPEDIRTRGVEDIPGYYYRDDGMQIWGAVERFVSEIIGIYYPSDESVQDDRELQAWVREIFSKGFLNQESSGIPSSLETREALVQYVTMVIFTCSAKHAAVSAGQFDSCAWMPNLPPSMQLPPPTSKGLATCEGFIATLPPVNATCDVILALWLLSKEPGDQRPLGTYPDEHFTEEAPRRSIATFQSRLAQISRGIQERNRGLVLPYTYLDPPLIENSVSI
# Test: Lipoxygenase metabolism of 14C substrates by the new 15S-lipoxygenase expressed in HEK 293 cells, HPLC analysis
# Format: biochemical
# Source text: The PCR products corresponding to the open reading frame of the cDNA were subcloned into the pCDNA3 vector (Invitrogen), or in some experiments ligated directly into pCR3 (Invitrogen), and expressed by transient transfection in human embryonic kidney (HEK) 293 cells as described (Funk et al. (1996) J. Biol. Chem. 271, 23338-23344).
smiles,measurement,value
CCCCC/C=C\C/C=C\C/C=C\C/C=C\CCCC(=O)O [arachidonic acid],product formed from the substrate,exclusively to 15S-hydroperoxyeicosatetraenoic acid
